Values quoted from earlier work as cited in US20240076624A1 (published 2024).

Biological target: T1, ALK5 (TGF-βR1) (Homo sapiens, UniProt P36897)
T1 sequence (P36897 34-503): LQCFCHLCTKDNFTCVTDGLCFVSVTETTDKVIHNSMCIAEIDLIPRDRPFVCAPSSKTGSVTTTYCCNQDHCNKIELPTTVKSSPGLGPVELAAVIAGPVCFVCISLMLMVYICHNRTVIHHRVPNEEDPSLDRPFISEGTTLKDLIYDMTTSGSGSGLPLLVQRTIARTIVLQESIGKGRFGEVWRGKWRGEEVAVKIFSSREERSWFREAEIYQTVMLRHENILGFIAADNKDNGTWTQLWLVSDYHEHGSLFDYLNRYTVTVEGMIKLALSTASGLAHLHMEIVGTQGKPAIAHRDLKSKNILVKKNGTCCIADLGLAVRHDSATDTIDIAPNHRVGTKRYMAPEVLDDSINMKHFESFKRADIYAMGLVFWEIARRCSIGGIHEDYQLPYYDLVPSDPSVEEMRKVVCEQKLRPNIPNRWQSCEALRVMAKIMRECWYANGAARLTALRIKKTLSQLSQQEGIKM
Conditions: high concentrations; p38 MAP kinase inhibitor; cited from earlier work

C[S+]([O-])c1ccc(-c2nc(-c3ccc(F)cc3)c(-c3ccncc3)[nH]2)cc1 (stereo not shown) [SB-203580]
concentration at which it is thought to inhibit ALK5: ≥ 10 µM
